Measured values reported in ChEMBL document CHEMBL1687699, “Discovery of Dual VEGFR-2 and Tubulin Inhibitors with in Vivo Efficacy” (ACS Med Chem Lett, 2010).

assay: Ratio of IC50 for VEGFR-1 to IC50 for VEGFR-2

SMILES	Ratio IC50
c1cnc(NCc2ccc3ncccc3c2)c(-c2nnc(Nc3ccc4c(c3)OCCO4)o2)c1	10
c1ccc(-c2nnc(Nc3ccc4c(c3)OCCO4)o2)c(NCc2ccncc2)c1	10
c1cnc(NCc2ccncc2)c(-c2nnc(Nc3ccc4c(c3)OCCO4)o2)c1	10
